Compound activity (PubChem)
Statin myotox sup – suppressors of simvastatin-induced myotoxicity in C2C12 myotubes; ATP luminescence, 48 h; scaled: DMSO 0, geranylgeraniol control 100; rescue of ATP level, % at 7.49 µM; 0.78% of 330,000 active; AID 602340;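 active = mean ATP rescue above about 67%, or every replicate alone reaching that limit, limit read from the data, passing the limit was not always enough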;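 note: myotubes were challenged with 10 µM simvastatin during compound exposure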
miR-122 sensor – blocks miR-122 activity in Huh7 sensor cells; Huh7 miR-122 Renilla luciferase sensor, 48 h; neutral wells = 0, positive control = 100; activation (reporter increase), % at 12.5 µM; 0.3% of 340,000 active;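 active = mean replicate activation score at least 90 and every replicate individually at or above 90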;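 note: higher luciferase means less miR-122 activity so hits act as miR-122 inhibitors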
Cneo AK release – causes C. neoformans cell lysis. adenylate kinase release luminescence, 4 h; normalised: neutral wells 0, clomiphene wells 100. lysis activity, % at 15 µM. 0.2% of 360,000 active. AID 651654;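 active = mean lysis activity across replicates of at least 80%, whatever share of replicates individually reach that level; inactive = mean lysis activity below 80%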
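Test system: log-phase Cryptococcus neoformans yeast cells. Input: 5 × 10^6 yeast cells/mL. Medium: fresh YPD growth medium. Doses: single dose. Incubation: static 4 h at 37 °C with compound, 1 h detection. Measured by: luminescent adenylate kinase detection reagent. Read-out: signal increase indicating cell lysis. Benchmarks: Clomiphene.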
Glyco luc inh – blocks N-linked glycosylation in D54 reporter cells | 0.23% of 360,000 active | reporter increase, % at 12.5 µM | D54 ERlucT glycosylation luciferase reporter, 24 h; percent of 100 nM tunicamycin response;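 active = mean luciferase reporter signal, scaled so untreated is 0 and the glycosylation-blocking control 100, at or above a set limit in every replicate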;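 note: luciferase carries N-glycosylation sites so blocking glycosylation raises the light; 0% = median of neutral control wells and 100% = median of 100 nM tunicamycin wells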
Yeast UUG start – yeast start codon fidelity modulation; activity score, % at 18.7 µM; actives 0.13% (n = 350,000); S. cerevisiae UUG-firefly luciferase reporter, luminescence/redox ratio; AID 602363;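 active means replicate mean at a twofold rise or more, about +100% in these data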;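 further: firefly luciferase made from a UUG start codon reports start codon fidelity; reporter light over untreated wells divided by growth signal over untreated wells; some hits fall short of that in this replicate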
An asterisk follows results filed as active; · = no result; [ ] = another dose, or the depositor's remark. This is a sample that favours compounds with a hit; in the whole collection about 1.2% have one here.

SMILES	Statin myotox sup	miR-122 sensor	Cneo AK release	Glyco luc inh	Yeast UUG start
CCCCc1nc(N2CCOCC2)c(C#N)c2c1COC(C)(C)C2	128.3*	-0.6	5.1	-0.4	-1.7
C[C@@H]1CCCCO[C@@H](CN(C)C(=O)Nc2ccc(F)cc2)[C@@H](C)CN([C@H](C)CO)C(=O)c2cc(N(C)C)ccc2O1	-30.7	-2.5[16.7 µM]	0.7	·	9.2
O=C(NNC(=O)c1cnccc1C(F)(F)F)c1cccc(Cl)c1	2.8	1.7	0.4	0.1	-9.1
O=C(CNC(=O)c1cnccc1C(F)(F)F)c1cccc(Cl)c1	77.8*	3.1	-2.0	1.1	-12.9
COC(=O)c1sc(N)c(C(=O)OC)c1CSc1nnc(-c2ccccc2Cl)n1C	48.6	103.7*	-3.8	0.2	-13.6
Cc1cccc(C(=O)N2CCC(n3nnc4cc(F)ccc43)CC2)c1	133.5*	5.4	-0.1	-0.1	-15.3
CCC(=O)NCCc1nc2ccccc2n1Cc1ccccc1	124.2*	-4.4	·	0.1	·
CCN(C(=O)Cn1c(=O)oc2ccccc21)c1ccc(C)c(C)c1	3.0	3.2	1.1	-2.1	-13.7

Next part, overlapping the part above by 5 compounds.
SMILES	Statin myotox sup	miR-122 sensor	Cneo AK release	Glyco luc inh	Yeast UUG start
O=C(CNC(=O)c1cnccc1C(F)(F)F)c1cccc(Cl)c1	77.8*	3.1	-2.0	1.1	-12.9
COC(=O)c1sc(N)c(C(=O)OC)c1CSc1nnc(-c2ccccc2Cl)n1C	48.6	103.7*	-3.8	0.2	-13.6
Cc1cccc(C(=O)N2CCC(n3nnc4cc(F)ccc43)CC2)c1	133.5*	5.4	-0.1	-0.1	-15.3
CCC(=O)NCCc1nc2ccccc2n1Cc1ccccc1	124.2*	-4.4	·	0.1	·
CCN(C(=O)Cn1c(=O)oc2ccccc21)c1ccc(C)c(C)c1	3.0	3.2	1.1	-2.1	-13.7
CC(=O)Nc1c(C(=O)NCc2ccccc2)nnn1Cc1ccccc1	2.2	1.3	-0.2	0.3	-8.9
CC(=O)Nc1nonc1-n1nnc(C(=O)NCc2ccccc2)c1C	-1.1	265.6*	-0.5	3.0	-5.8
COc1ccc(CN(C)C[C@H]2Oc3ccc(NS(=O)(=O)c4ccccc4)cc3CC(=O)N([C@@H](C)CO)C[C@@H]2C)cc1	65.5*	3.0[16.7 µM]	1.1	·	-0.4
COc1ccc(S(=O)(=O)Nc2ccc3c(c2)CC(=O)N([C@H](C)CO)C[C@@H](C)[C@H](CN(C)Cc2ccc(Cl)c(Cl)c2)O3)cc1	110.0*	-23.6[16.7 µM]	57.2	·	12.5
COc1ccc(CN(C)C[C@H]2Oc3ccc(NS(=O)(=O)c4ccc(F)cc4)cc3CC(=O)N([C@@H](C)CO)C[C@@H]2C)cc1	67.3*	-10.0[16.7 µM]	-1.9	·	5.4
COc1ccc(CN(C)C[C@@H]2Oc3ccc(NS(=O)(=O)c4ccc(Cl)cc4)cc3CC(=O)N([C@H](C)CO)C[C@H]2C)cc1	94.5*	0.9[16.7 µM]	3.1	·	-3.2
COc1ccc(CN(C)C[C@@H]2Oc3ccc(NS(=O)(=O)c4ccc(Cl)cc4)cc3CC(=O)N([C@@H](C)CO)C[C@@H]2C)cc1	11.4	-1.0[16.7 µM]	0.6	·	5.8
CCCN(C)C[C@H]1Oc2cc(/C=C/c3ccccc3)ccc2S(=O)(=O)N([C@H](C)CO)C[C@H]1C	-33.0	-1.4[16.7 µM]	8.5	·	17.6

SMILES	Statin myotox sup	miR-122 sensor	Cneo AK release	Glyco luc inh	Yeast UUG start
C[C@@H]1CN([C@H](C)CO)C(=O)Cc2cc(NS(=O)(=O)c3ccc(Cl)cc3)ccc2O[C@H]1CN(C)Cc1ccccc1	96.0*	-2.7[16.7 µM]	-7.3	·	-3.0
COc1ccc(CN(C)C[C@H]2Oc3ccc(NS(=O)(=O)c4ccc(F)cc4)cc3CC(=O)N([C@H](C)CO)C[C@H]2C)cc1	68.6*	-2.6[16.7 µM]	2.0	·	-1.9
C[C@H]1CN([C@@H](C)CO)C(=O)Cc2cc(NS(=O)(=O)c3cn(C)cn3)ccc2O[C@@H]1CN(C)Cc1ccc(Oc2ccccc2)cc1	0.0	2.9[16.7 µM]	110.5*	·	14.4
Cc1ccc(S(=O)(=O)Nc2ccc3c(c2)CC(=O)N([C@@H](C)CO)C[C@@H](C)[C@H](CN(C)Cc2ccc(-c4ccccc4)cc2)O3)cc1	103.1*	-25.8[16.7 µM]	0.1	·	8.4
COc1ccc(CN(C)C[C@@H]2Oc3ccc(NS(=O)(=O)c4ccc(F)cc4)cc3CC(=O)N([C@H](C)CO)C[C@@H]2C)cc1	18.2	0.2[16.7 µM]	0.3	·	5.4
C[C@H]1CN([C@@H](C)CO)C(=O)c2cc(C#Cc3cccc(F)c3)cnc2O[C@@H]1CN(C)C(=O)C1CCOCC1	4.2	-9.4[16.7 µM]	·	·	-12.7
C[C@@H]1CN([C@H](C)CO)C(=O)c2ccccc2-c2ccccc2CO[C@@H]1CN(C)S(C)(=O)=O	-13.1	·	-0.5	·	·
CCCNC(=O)Nc1ccc2c(c1)OC[C@@H](C)N(Cc1ccccn1)C[C@@H](C)[C@@H](OC)CN(C)C2=O	10.0	·	-5.6	·	-9.1

SMILES	Statin myotox sup	miR-122 sensor	Cneo AK release	Glyco luc inh	Yeast UUG start
Cc1ccc(S(=O)(=O)N2CCN(S(=O)(=O)c3ccc(C)cc3)C2c2ccccc2)cc1	138.5*	7.7	-1.7	-4.6	-16.5
COc1ccc(C(=O)Nc2nc3c(s2)CCCC3)cc1S(=O)(=O)N1CCCc2ccccc21	·	115.0*	2.8	-19.4	-10.4
COc1ccc(Cn2nc(C)n(N(C)c3ncc(C(F)(F)F)cc3Cl)c2=O)cc1	-16.4	-0.2	8.8	2.0	7.5
CN(C)S(=O)(=O)c1ccc(Cl)c(NC(=O)CNC2(C)CCS(=O)(=O)C2)c1 (stereo not drawn)	-4.8	-4.2	0.1	-1.2	-15.5
C[C@H](NC(=O)C[C@@H]1C=C[C@H](NC(=O)CN2CCOCC2)[C@@H](CO)O1)c1ccccc1	9.6	·	91.4*	·	6.8
Cc1cc(C)n(C(=O)c2cc3ccccc3c(=O)o2)n1	93.1*	3.1	-0.5	0.3	-1.2
COc1cccc(S(=O)(=O)Nc2ccc3c(c2)[C@H]2C[C@H](CC(=O)N(C)C)O[C@@H](CO)[C@H]2O3)c1	-0.9	3.8[16.7 µM]	98.8*	·	3.1
CN(C)C(=O)C[C@@H]1C[C@@H]2c3cc(NC(=O)Nc4ccccc4)ccc3O[C@@H]2[C@@H](CO)O1	-1.0	1.8[16.7 µM]	0.5	·	42.9*

SMILES	Statin myotox sup	miR-122 sensor	Cneo AK release	Glyco luc inh	Yeast UUG start
O=C(O)C[C@@H]1C[C@@H]2c3cc(NC(=O)CC4CC4)ccc3O[C@@H]2[C@@H](CO)O1	-5.3	2.9[16.7 µM]	-1.0	·	49.8*
O=C(O)C[C@@H]1C[C@@H]2c3cc(NC(=O)CC4CC4)ccc3O[C@@H]2[C@H](CO)O1	-2.0	-2.5[16.7 µM]	-11.3	·	-6.7
CN(C)C(=O)C[C@H]1C[C@@H]2c3cc(NC(=O)Nc4ccccc4)ccc3O[C@@H]2[C@H](CO)O1	1.1	-1.0[16.7 µM]	-5.0	·	-9.6
C[C@@H]1CCCCO[C@@H](CN(C)C(=O)Nc2ccc(F)cc2)[C@H](C)CN([C@@H](C)CO)C(=O)c2cc(NC(=O)Nc3ccc4c(c3)OCO4)ccc2O1	0.5	-4.0[16.7 µM]	1.4	·	-2.4
C[C@H](CO)N1C[C@H](C)[C@H](CN(C)Cc2ccc(C(F)(F)F)cc2)Oc2ccc(NC(=O)CCC(F)(F)F)cc2C1=O	-5.8	-2.1[16.7 µM]	-0.4	·	-2.1
CO[C@@H]1CC[C@H]2CCN(C)C(=O)[C@H](C)[C@H](OC)CN(C)C(=O)c3cc(C#N)ccc3OC[C@@H]1O2	4.4	·	1.1	·	·
C[C@@H]1CN([C@@H](C)CO)C(=O)c2cccc(NS(=O)(=O)c3cccs3)c2O[C@@H]1CN(C)Cc1ccc(Oc2ccccc2)cc1	40.0	50.6[16.7 µM]	4.9	·	8.7
C[C@H]1CN([C@@H](C)CO)C(=O)c2cccc(NS(=O)(=O)c3cccs3)c2O[C@@H]1CN(C)Cc1ccc(C(F)(F)F)cc1	3.6	118.9*[16.7 µM]	-4.9	·	24.7
C[C@H]1CN([C@@H](C)CO)C(=O)c2cccc(NS(=O)(=O)c3cccs3)c2O[C@@H]1CN(C)Cc1ccc(Oc2ccccc2)cc1	83.2*	-3.2[16.7 µM]	2.2	·	-3.0
